Values quoted from earlier work, collected in paper PMC5947850 (ACS infectious diseases, 2017).

Molecular target: T1, P. falciparum cytochrome bc1 (Plasmodium falciparum, UniProt Q02768)
T1 sequence (Q02768 1-376): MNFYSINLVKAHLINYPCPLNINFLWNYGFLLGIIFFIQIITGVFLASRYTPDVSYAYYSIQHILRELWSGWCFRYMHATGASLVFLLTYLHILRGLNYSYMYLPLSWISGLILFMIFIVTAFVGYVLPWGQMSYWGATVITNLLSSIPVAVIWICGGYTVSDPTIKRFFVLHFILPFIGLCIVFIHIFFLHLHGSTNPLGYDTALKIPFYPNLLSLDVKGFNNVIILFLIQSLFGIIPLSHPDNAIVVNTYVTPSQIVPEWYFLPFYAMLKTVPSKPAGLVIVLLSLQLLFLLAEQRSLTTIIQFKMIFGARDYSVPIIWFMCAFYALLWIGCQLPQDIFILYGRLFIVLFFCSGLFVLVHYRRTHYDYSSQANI
Conditions: read-out: P. falciparum cytochrome bc1 EC50; ref Nilsen, et al. 14; cited from earlier work

O=C1C(O)=C([C@H]2CC[C@H](c3ccc(Cl)cc3)CC2)C(=O)c2ccccc21 [Atovaquone, reference compound]
EC50: 2 nM
